Patent US12528818B2, “Compositions and methods for inhibition of RAS” (Leidos Biomedical Research, Inc., priority 2021, dated 2026)

How the values were obtained:
[1] = biological target: GppNHp-loaded KRAS4b (amino acids 1-169) G12C/C118S protein (Homo sapiens, UniProt P01116, C118S/G12C); experiment: Covalent cysteine 12 modification by MALDI-TOF MS, GppNHp-loaded KRAS G12C; assay type: biochemical; settings: 15 minutes reaction time
[2] = biological target: GDP-loaded KRAS4b (amino acids 1-169) G12C/C118S protein (Homo sapiens, UniProt P01116, C118S/G12C); experiment: Covalent cysteine 12 modification by MALDI-TOF MS, GDP-loaded KRAS G12C; assay type: biochemical; settings: 15 minutes reaction time
[3] = biological target: Avi-KRAS G12C (1-169) GppNHp/RAF1 RBD-3xFLAG (52-151) (Homo sapiens, UniProt P01116, G12C); experiment: biochemical; settings: Raf1-GppNHp-KRAS G12C disruption, Raf1 RBD-KRAS G12C-GppNHp disruption assay IC50
[4] = compound 95 or later using 1 μM proteins
[5] = compounds 94 or before using 5 μM proteins

Row | SMILES | GppNHp-KRAS G12C percent of modification [1, 4] | GDP-KRAS G12C percent of modification [2, 4] | IC50 [3] [nM] | GppNHp-KRAS G12C percent of modification [1, 5] | GDP-KRAS G12C percent of modification [2, 5]
1 | C=CC(=O)N1CC(N(C)c2nc(OC[C@@]34CCCN3C[C@H](F)C4)nc3c(F)c(-c4ccc(F)c5sc(N)nc45)c(Cl)cc23)C1 [Compound 247] | C (10%≤percent of modification <50%) | A (percent of modification ≥70%) | < 500 | – | –
2 | C=CC(=O)N1CC[C@@H](N(C)c2nc(OCC34CCCN3CCC4)nc3c(F)c(-c4cc(O)cc5ccccc45)c(C(F)(F)F)cc23)C1 [Compound 226] | A (percent of modification ≥70%) | A (percent of modification ≥70%) | < 500 | – | –
3 | C=CC(=O)N1CCN(c2nc(OC[C@]34CCCN3C[C@H](F)C4)nc3c(F)c(-c4ccc(F)c5sc(N)nc45)c(C(F)(F)F)cc23)CC1 [Compound 150] | C (10%≤percent of modification <50%) | B (50≤percent of modification <70%) | 500 to 5000 | – | –
4 | CC#CC(=O)N1CCN(c2nc(OC[C@@H]3CCCN3CC(F)F)nc3c(F)c(-c4ccc(F)c5sc(N)nc45)c(C(F)(F)F)cc23)CC1 [Compound 158] | D (percent of modification <10%) | C (10%≤percent of modification <50%) | > 20000 | – | –
5 | C=CC(=O)N1CCN(c2nc(OCC34CCCN3CCC4)nc3c(F)c(-c4ccc(F)c5sc(N)nc45)c(OC(F)F)cc23)CC1 [Compound 254] | C (10%≤percent of modification <50%) | A (percent of modification ≥70%) | < 500 | – | –
6 | CC#CC(=O)N1CC[C@@H]2[C@H]1CN2c1nc(OCC23CCCN2CCC3)nc2c(F)c(-c3ccc(F)c4sc(N)nc34)c(C(F)(F)F)cc12 [Compound 180] | D (percent of modification <10%) | C (10%≤percent of modification <50%) | 500 to 5000 | – | –
7 | Nc1nc2c(-c3c(Cl)cc4c(N5CC6(CN(C(=O)CCl)C6)C5)ncnc4c3F)ccc(F)c2s1 [Compound 27] | – | – | 5000 to 20000 | C (10%≤percent of modification <50%) | B (50≤percent of modification <70%)
8 | C=CC(=O)N1C[C@H](C)N(c2nc(OC[C@@]34CCCN3C[C@H](F)C4)nc3c(F)c(-c4ccc(F)c5sc(N)nc45)c(OC(F)(F)F)cc23)C[C@H]1C [Compound 235, 1-((2R,5S)-4-(7-(2-amino-7-fluorobenzo[d]thiazol-4-yl)-8-fluoro-2-(((2R,7aS)-2-fluorotetrahydro-1H-pyrrolizin-7a(5H)-yl)methoxy)-6-(trifluoromethoxy)quinazolin-4-yl)-2,5-dimethylpiperazin-1-yl)prop-2-en-1-one] | C (10%≤percent of modification <50%) | A (percent of modification ≥70%) | < 500 | – | –
9 | C=CC(=O)N1CC[C@@H](N(C)c2nc(OC[C@@H]3CC(F)(F)CN3C)nc3c(F)c(-c4ccc(F)c5sc(N)nc45)c(C(F)(F)F)cc23)C1 (atropisomer, axis not shown) [Compound 228] | C (10%≤percent of modification <50%) | A (percent of modification ≥70%) | 500 to 5000 | – | –
10 | C=CC(=O)N1CC(Nc2nc(OCC34CCCN3CC(F)(F)C4)nc3c(F)c(-c4ccc(F)c5sc(N)nc45)c(Cl)cc23)C1 (stereo not drawn) [Compound 145] | D (percent of modification <10%) | C (10%≤percent of modification <50%) | 500 to 5000 | – | –
11 | C=CC(=O)N1CCN(c2nc(C3CCN(C)CC3)nc3c(F)c(-c4ccc(F)c5sc(N)nc45)c(Cl)cc23)CC1 [Compound 59, 1-(4-(7-(2-amino-7-fluorobenzo[d]thiazol-4-yl)-6-chloro-8-fluoro-2-(1-methylpiperidin-4-yl)quinazolin-4-yl)piperazin-1-yl)prop-2-en-1-one] | – | – | > 20000 | D (percent of modification <10%) | A (percent of modification ≥70%)
12 | C=CC(=O)N1CCN(c2nc(OCC34CCCN3CC(F)(F)C4)nc3c(F)c(-c4ccc(F)c5sc(N)nc45)c(C(F)(F)F)cc23)CC1 (stereo not drawn) [Compound 192] | D (percent of modification <10%) | C (10%≤percent of modification <50%) | 500 to 5000 | – | –
13 | C=CC(=O)N1CC[C@@H](Nc2nc(OC[C@@]34CCCN3C[C@H](F)C4)nc3c(F)c(-c4ccc(F)c5sc(N)nc45)c(C(F)(F)F)cc23)C1 (single isomer, unassigned) [Compound 271] | A (percent of modification ≥70%) | A (percent of modification ≥70%) | < 500 | – | –
14 | C=CC(=O)N1CCN(c2nc(OC[C@@]34CCCN3C[C@@H](F)C4)nc3c(F)c(-c4ccc(F)c5sc(N)nc45)c(C(F)(F)F)cc23)C[C@H]1C [Compound 220] | D (percent of modification <10%) | D (percent of modification <10%) | 500 to 5000 | – | –
15 | C=CC(=O)NCCNc1nc(C2CCN(C)CC2)nc2c(F)c(-c3ccc(F)c4sc(N)nc34)c(Cl)cc12 [Compound 64] | – | – | > 20000 | D (percent of modification <10%) | B (50≤percent of modification <70%)
16 | C=CC(=O)N1CC2(CCN(c3ncnc4c(F)c(-c5ccc(F)c6sc(N)nc56)c(Cl)cc34)CC2)C1 [Compound 26] | – | – | > 20000 | D (percent of modification <10%) | A (percent of modification ≥70%)
17 | Nc1nc2c(-c3c(Cl)cc4c(N5CCN(C(=O)CCl)CC5)ncnc4c3F)ccc(F)c2s1 [Compound 8] | – | – | 500 to 5000 | A (percent of modification ≥70%) | A (percent of modification ≥70%)
18 | CC#CC(=O)N1CC(N(C)c2nc(OCC34CCCN3CCC4)nc3c(F)c(-c4ccc(F)c5sc(N)nc45)c(Cl)cc23)C1 [Compound 106] | C (10%≤percent of modification <50%) | A (percent of modification ≥70%) | < 500 | – | –
19 | C=CC(=O)N1CCN(c2nc(OC[C@@H]3CCCN3C)nc3c(F)c(-c4ccc(F)c5sc(N)nc45)c(C)cc23)CC1 [Compound 216] | D (percent of modification <10%) | A (percent of modification ≥70%) | 500 to 5000 | – | –
